From article PMC11926245 (Nature Communications, 2025)

B1: Tyrosine hydroxylase, wild-type (hTH1) (enzyme)
chain: not shown
modifications: biotinylated with EZ-Link NHS-PEG4-Biotin for BLI only

Columns and labels:
[1] = target: T1, DNAJC12, full-length wild-type (isoform a) (human, UniProt Q9UKB3-1 1-198); test: BLI; as the BLI without dopamine, but TH with dopamine (DA); settings: both partners purified
T1 construct: Monomer by SEC-MALS; Cloned into pETMBP1a after the TEV site; also called DNAJC12 WT; source: E. coli BL21-CodonPlus(DE3)-RIL, purified (HisTrap, TEV cleavage, TALON, amylose, SEC); not shown: His6, N-terminal, cleaved; MBP, N-terminal, cleaved

[2] = target: the molecule itself; test: SEC-MALS; Superdex 200 Increase, 20 mM Na-Hepes pH 7.0, 200 mM NaCl; DNAJC12 3 mg/mL, TH, TH:DNAJC12 complex, TH(1-158) and TH(155-497) 2 mg/mL
[3] = target: T1, DNAJC12, full-length wild-type (isoform …); test: BLI; biotinylated TH or TH variant immobilised on streptavidin sensors; DNAJC12 or variant 0.01-4 μM in solution; PBS, 0.02% Tween-20, 0.5 mg/mL BSA, 25 °C; responses fitted to a one-site hyperbola; settings: both partners purified
DNAJC12(1-190) = DNAJC12(1-190) (human, UniProt Q9UKB3-1 1-190); test: as above; settings: both partners purified
[4] = target: B1; test: as above; settings: both partners purified

Question: With B1 as the binder, how does the Kd [1] read?
Answer: 147 nM

Question: What about the “stoichiometry N” value [2] of the same binder?
Answer: 4

Question: And the Kd [3]?
Answer: 148 nM

Question: What about the Kd (DNAJC12(1-190)) of the same binder?
Answer: 1670 nM

B2: DNAJC12(108-198) (domain or fragment, human, UniProt Q9UKB3-1 108-198, looked up)
chain: KKDLMLEESDKTHTTKMENEECNEQRERKKEELASTAEKTEQKEPKPLEKSVSPQNSDSSGFADVNGWHLRFRWSKDAPSELLRKFRNYEI
Question: How did the Kd [4] turn out when B2 was run?
Answer: 42 nM
